Yeast mating assay 2: variants of the scFv Ab-91

All variants were tested on one target, the spike HR2 peptide PDVDLGDISGINAS (SARS-CoV-2).

Each scFv is VL, a (GGGGS)3 linker, VH, as in the parent Ab-91, and differs from it in the CDRs of the heavy chain only.
VL: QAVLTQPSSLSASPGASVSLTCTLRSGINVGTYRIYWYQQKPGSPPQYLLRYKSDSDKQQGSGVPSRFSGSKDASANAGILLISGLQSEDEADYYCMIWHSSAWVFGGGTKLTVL
VH: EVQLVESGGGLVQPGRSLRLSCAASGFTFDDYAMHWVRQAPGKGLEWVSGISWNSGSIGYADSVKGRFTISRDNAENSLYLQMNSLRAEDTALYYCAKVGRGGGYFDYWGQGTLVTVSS

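The library (AAYL51) carries one to three amino acid substitutions per variant, with no insertions or deletions. The assay is AlphaSeq: two haploid yeast populations carry antibody and antigen on their surface. Binding brings cells together so that they mate, and sequencing counts the barcode pairs among the diploids. Scores were corrected for input abundance and mapped to Kd with protein pairs of known affinity run in the same pool. Mating was done three times.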

Changes read parent residue, position, new residue, counted from the first residue of the VH shown. The read-out is the apparent dissociation constant on a log10 scale (nM): the lower, the stronger. Replicates are averaged; those with no signal do not enter the mean. "nd" marks a missing value. The strain was present, yet no cells mated with the target were sequenced in that replicate, which points to weak or no binding. As a blank, each scFv also met three strains without target: over library AAYL51, 21% of these pairings were detected, typically at 4.54 and seldom below 3.26. The control count says in how many pairings with the empty strains this scFv gave a signal, with their mean in brackets.

{"changes": "T28Y/S57P/K65L", "log10 Kd (nM) by replicate": "5.42 / nd / 4.42", "log10 Kd (nM), mean": "4.92", "control signals": "3/9 (5.13)"}
{"changes": "G104A/Y105L", "log10 Kd (nM) by replicate": "4.24 / nd / nd", "log10 Kd (nM), mean": "4.24", "control signals": "2/9 (4.22)"}
{"changes": "F29G/S63D/V99S", "log10 Kd (nM) by replicate": "3.45 / 3.29 / nd", "log10 Kd (nM), mean": "3.37", "control signals": "1/9 (3.55)"}
{"changes": "A61W/D62N/K65M", "log10 Kd (nM) by replicate": "4.82 / 4.76 / 4.63", "log10 Kd (nM), mean": "4.74", "control signals": "7/9 (5.01)"}
{"changes": "H35S/R101A/G104D", "log10 Kd (nM) by replicate": "4.26 / nd / 4.43", "log10 Kd (nM), mean": "4.34", "control signals": "1/9 (4.11)"}
{"changes": "A33H/Y60V", "log10 Kd (nM) by replicate": "nd / nd / nd", "log10 Kd (nM), mean": "nd", "control signals": "0/9"}
{"changes": "G50Y/S55T/G104I", "log10 Kd (nM) by replicate": "4.82 / 5.71 / 5.55", "log10 Kd (nM), mean": "5.36", "control signals": "7/9 (5.12)"}
{"changes": "D30Q/W53G/I58D", "log10 Kd (nM) by replicate": "0.60 / 0.53 / -0.14", "log10 Kd (nM), mean": "0.33", "control signals": "5/9 (5.12)"}
{"changes": "D30T/K65C", "log10 Kd (nM) by replicate": "2.28 / 2.23 / 1.43", "log10 Kd (nM), mean": "1.98", "control signals": "1/9 (3.67)"}
{"changes": "D31I/A33Q/S57C", "log10 Kd (nM) by replicate": "nd / nd / nd", "log10 Kd (nM), mean": "nd", "control signals": "1/9 (3.68)"}
{"changes": "D30M/Y32Q/Y60R", "log10 Kd (nM) by replicate": "nd / nd / nd", "log10 Kd (nM), mean": "nd", "control signals": "0/9"}
{"changes": "F27N", "log10 Kd (nM) by replicate": "4.29 / 4.49 / nd", "log10 Kd (nM), mean": "4.39", "control signals": "3/9 (5.11)"}
{"changes": "H35M/A61I/G100L", "log10 Kd (nM) by replicate": "5.61 / nd / 5.66", "log10 Kd (nM), mean": "5.63", "control signals": "3/9 (5.47)"}
{"changes": "D31K/A61D/G103P", "log10 Kd (nM) by replicate": "5.34 / 4.36 / 4.43", "log10 Kd (nM), mean": "4.71", "control signals": "3/9 (3.95)"}
{"changes": "N54Y/G56P/I58F", "log10 Kd (nM) by replicate": "nd / nd / 4.88", "log10 Kd (nM), mean": "4.88", "control signals": "3/9 (4.74)"}
{"changes": "D31W/A33G/I58F", "log10 Kd (nM) by replicate": "0.15 / 0.05 / -0.73", "log10 Kd (nM), mean": "-0.18", "control signals": "2/9 (5.04)"}
{"changes": "F27K/D31I/A33Y", "log10 Kd (nM) by replicate": "5.34 / 5.05 / nd", "log10 Kd (nM), mean": "5.19", "control signals": "5/9 (5.11)"}
{"changes": "G56T/D62K/V64L", "log10 Kd (nM) by replicate": "nd / nd / nd", "log10 Kd (nM), mean": "nd", "control signals": "2/9 (5.18)"}
{"changes": "S57T/G59F/K65Y", "log10 Kd (nM) by replicate": "nd / nd / nd", "log10 Kd (nM), mean": "nd", "control signals": "0/9"}
{"changes": "F29D/D30I/N54T", "log10 Kd (nM) by replicate": "2.65 / 4.29 / 1.32", "log10 Kd (nM), mean": "2.76", "control signals": "0/9"}
{"changes": "T28F/V99A/D107K", "log10 Kd (nM) by replicate": "nd / 4.96 / nd", "log10 Kd (nM), mean": "4.96", "control signals": "3/9 (3.70)"}

For reference, 2 entries of the list once more:

{"changes": "F27N", "log10 Kd (nM) by replicate": "4.29 / 4.49 / nd", "log10 Kd (nM), mean": "4.39", "control signals": "3/9 (5.11)"}
{"changes": "T28Y/S57P/K65L", "log10 Kd (nM) by replicate": "5.42 / nd / 4.42", "log10 Kd (nM), mean": "4.92", "control signals": "3/9 (5.13)"}

Parent in this assay: reference entry 1.86, copy in this library 0.88.

Data: MIT Lincoln Laboratory AlphaSeq set, Engelhart et al. 2022, doi:10.1038/s41597-022-01779-4, as distributed in FLAb.